Assay: Selectivity index, ratio of IC50 for PAD2 (unknown origin) to IC50 for PAD4 (unknown origin)

Row | Compound | Ratio IC50
1 | CN(C)c1ccc2cc(C(=O)N[C@@H](CCCNC(=N)CCl)C(=O)NCc3ccccc3)ccc2c1 | 1.5
2 | N=C(CCl)NCCC[C@H](NC(=O)c1cc2c([nH]c3ccccc32)c(-c2ccccc2)n1)C(=O)NCc1ccccc1 | 3.8
